These are literature values, as cited in patent US6569404B1, “Phase shift colloids as ultrasound contrast agents” (priority 1993, dated 2003).

Where two headings read alike, the source gives them in different places.

For the data set the following is noted: cited from earlier work.
The mark [1] stands for this setting: Chemical List of low boiling liquids, Example 45.
[2] abbreviates: boiling point under standard pressure conditions, chemical list arranged by total atoms.

As for `FC(F)(F)OOC(F)(F)F`, under setting [1], the “Boiling Point” value is −32.0 degrees Celcius.
In the case of Methane, chloro dinitro, the “Boiling Point” value under setting [1] is reported as 34.0 degrees Celcius.
Consider Methyldifluoramine, for which the “Boiling Point” value under setting [2] is on record as −16 degrees Celcius.
With dimethyl-phosphine, the “Boiling Point” value under setting [2] is 20 degrees Celcius.
